Biological target: Orexin/Hypocretin receptor type 1 (Homo sapiens, UniProt O43613)
Assay: Antagonist activity at human orexin 1 receptor expressed in HEK293 cells assessed as inhibition of orexin-induced calcium mobilization after 60 mins by FLIPR assay
Assay type: functional, cell-based

By UniProt entry, the sequences of proteins in these tests, tags left out.
UniProt O43613, whole entry: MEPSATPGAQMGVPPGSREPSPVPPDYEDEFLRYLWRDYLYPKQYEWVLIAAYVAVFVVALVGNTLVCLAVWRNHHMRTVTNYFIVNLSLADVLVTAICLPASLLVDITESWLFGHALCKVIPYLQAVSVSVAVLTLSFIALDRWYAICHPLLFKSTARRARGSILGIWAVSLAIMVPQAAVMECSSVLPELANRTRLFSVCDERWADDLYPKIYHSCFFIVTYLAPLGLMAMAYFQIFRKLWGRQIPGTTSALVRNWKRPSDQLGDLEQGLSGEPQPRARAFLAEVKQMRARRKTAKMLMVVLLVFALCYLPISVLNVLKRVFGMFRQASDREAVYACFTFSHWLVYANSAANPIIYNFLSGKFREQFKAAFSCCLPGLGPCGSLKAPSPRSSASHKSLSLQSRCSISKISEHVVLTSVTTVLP

Cc1ccc(-n2nccn2)c(C(=O)N2CCN(c3nc4cc(Cl)ccc4o3)CC[C@H]2C)c1 [SUVOREXANT]
IC50: 199 nM

Reference: ChEMBL document CHEMBL3997829, “Discovery of novel substituted octahydropyrrolo[3,4-c]pyrroles as dual orexin receptor antagonists for insomnia treatment” (Bioorg Med Chem Lett, 2017)
